Data: EP1914235A1, “CHIRAL TETRA-HYDRO BETA-CARBOLINE DERIVATIVES AND APPLICATIONS THEREOF AS ANTIPARASITIC COMPOUNDS” (Université de Lille 2 Droit et Santé, priority 2006, dated 2008)

System: Plasmodium berghei ANKA strain
Test: In vivo antiparasitic activity in infected mice (4-day dosing, parasitemia on day 5)
Conditions: control drug, per os every day for 4 days at 10 mg/kg
Protocol: P. berghei ANKA strain, which is chloroquine sensitive (Killick-Kendrick, 1978).
Female mice (TFW or BALB/c, specific pathogen free), 18-20 g, or
Infection: Blood was taken from donor mice and diluted in RPMI-1640 medium to a parasitemia of 1% (the equivalent of 1x10^7 infected erythrocytes/ml) whilst kept on ice. An inoculum of 0.2 ml was administered to each mouse by the intravenous route. At 2-4 hours post-inoculation dosing commences.
Evaluation endpoint: On day 5 blood smears of all animals (2 slides/mouse) were prepared, fixed with methanol and stained with 10% Giemsa's stain. Parasitemia was determined microscopically by counting 1000 red blood cells under oil immersion at 1000x magnification. Results were reported as % infected erythrocytes and compared to the chloroquine control group and the untreated control group.
The chloroquine sensitive Plasmodium berghei ANKA strain was used in the primary evaluation.
Each of the tested compounds of formula (I) according to the invention was prepared as a stock solution of 5 mg/ml in 10% DMSO/PBS. Insoluble compounds of formula (I) were milled with stainless steel balls for up to 24 hours to reduce particle size. Fresh dilutions were prepared each day. The route of administration of tested compounds is intra peritoneal (i.p.). […]

## CCN(CC)CCCC(C)Nc1ccnc2cc(Cl)ccc12 (stereo not shown) [Chloroquine, reference compound]
  parasite clearance on day 4: > 90%
